Source: PMC2164977 (The Journal of Cell Biology, 1999)

Tested on: degradation activity of chloroplast extract (ATP-dependent, soluble metallopeptidase activity)
Assay: Degradation assay with chloroplast extract
Type: biochemical
Details: 20 mM ATP added back to extract preincubated with 100 units/ml apyrase

## Nc1ncnc2c1ncn2[C@@H]1O[C@H](COP(=O)(O)OP(=O)(O)OP(=O)(O)O)[C@@H](O)[C@H]1O [ATP]
  original subfragment detected after 30 min: 49%
